In patent publication US20240058464A1, “COMBINATION THERAPY WITH FOR46 FOR CANCER” (Fortis Therapeutics, Inc., priority 2021, published 2024):

Assays:
CD46 expression [1] = assay: CD46 expression by RNA-sequencing in unpaired pre-treatment and post-treatment tumor biopsies; type: in vivo, human; conditions: for CD46 expression Post: post-treatment biopsies, unpaired, RNA-seq log2-transformed normalized counts; for CD46 expression diff: Post minus Pre, unpaired biopsies, log2-transformed counts; for CD46 expression Percentage change: post- vs pre-treatment unpaired biopsies
CD46 expression [2] = assay: CD46 expression by RNA-sequencing in paired tumor biopsies before and after therapy; conditions: for CD46 expression, Post-Treatment Biopsy / CD46 expression, Pre-Treatment Biopsy: RNA-seq log2-transformed counts;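 for all read-outs here: FFPE human tumor biopsies, exome-capture RNA-seq, reads aligned to GRCh37, counts normalized for GC content, length and depth, summed per gene, log2-transformed, samples paired before versus after therapy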
[3] = Head and Neck Squamous Cell Carcinoma

In the case of CO[C@H]1C(=O)[C@]2(C)[C@@H](OC)C[C@H]3OC[C@@]3(OC(C)=O)[C@H]2[C@H](OC(=O)c2ccccc2)[C@]2(O)C[C@H](OC(=O)[C@H](O)[C@@H](NC(=O)OC(C)(C)C)c3ccccc3)C(C)=C1C2(C)C [cabazitaxel], the “CD46 expression Post” value (CD46 expression [1]; Prostate Cancer) is reported as 6.13.
In the case of C=CC(=O)Nc1cc(Nc2nccc(-c3cn(C)c4ccccc34)n2)c(OC)cc1N(C)CCN(C)C [osimertinib], the “CD46 expression, Post-Treatment Biopsy” value (CD46 expression [2]; Non-Small Cell Lung Cancer) is reported as 6.25.
With C[C@]12C=CC(=O)C=C1CC[C@@H]1[C@@H]2C(=O)C[C@@]2(C)[C@H]1CC[C@]2(O)C(=O)CO [prednisone] the “CD46 expression Post” value (CD46 expression [1]; Non-Small Cell Lung Cancer) was 6.13.
In the case of cetuximab, the “Percent Change in CD46 expression” value (CD46 expression [2]; Colorectal Cancer) is reported as 1.7%, the “CD46 expression, Post-Treatment Biopsy” value (CD46 expression [2]; Colorectal Cancer) is reported as 6.13 and the “CD46 expression, Pre-Treatment Biopsy” value (CD46 expression [2]; Colorectal Cancer) is reported as 6.03. For the same compound, the CD46 expression diff (CD46 expression [1]; Colorectal Cancer) was 0.31, the “CD46 expression Percentage change” value (CD46 expression [1]; Colorectal Cancer) was 5.0% and the “CD46 expression Post” value (CD46 expression [1]; Colorectal Cancer) was 6.53. For the same compound, the CD46 expression diff (CD46 expression [1]; [3]) was 0.23, the “CD46 expression Percentage change” value (CD46 expression [1]; [3]) was 4.2% and the “CD46 expression Post” value (CD46 expression [1]; [3]) was 5.78.
trastuzumab was tested, and the “CD46 expression diff (post minus pre)” value (CD46 expression [2]; Breast Cancer) was 0.25, the “Percent Change in CD46 expression” value (CD46 expression [2]; Breast Cancer) was 4.2% and the “CD46 expression, Post-Treatment Biopsy” value (CD46 expression [2]; Breast Cancer) was 6.31. The “CD46 expression, Pre-Treatment Biopsy” value (CD46 expression [2]; Breast Cancer) was 6.05, the CD46 expression diff (CD46 expression [1]; Breast Cancer) was −0.03 and the “CD46 expression Percentage change” value (CD46 expression [1]; Breast Cancer) was −0.6%. The “CD46 expression Post” value (CD46 expression [1]; Breast Cancer) was 6.25, the CD46 expression diff (CD46 expression [1]; Esophageal Cancer) was 0.24 and the “CD46 expression Percentage change” value (CD46 expression [1]; Esophageal Cancer) was 4.0%. For the same compound, the “CD46 expression Post” value (CD46 expression [1]; Esophageal Cancer) was 6.13.
